Results on one compound are retold here after patent publication US20250242060A1, “CHEMOGENETIC REGULATION OF PEPTIDE FUNCTION” (priority 2022, published 2025).

The test system of this assay is mu-opioid receptor (MOR). In words: GloSensor cAMP assay, single chain met-enkephalin-CapC-MOR. As to conditions: HEK 293T, forskolin stimulated, 10 micromolar.

With `C=CCN1CC[C@]23c4c5ccc(O)c4O[C@H]2C(=O)CC[C@@]3(O)[C@H]1C5` [naloxone], the “Change of luminescence signal” value was “sharp increase”.
